Ab-14 heavy chain CDR variants: yeast mating affinities

Target: peptide PDVDLGDISGINAS, taken from heptad repeat 2 (HR2) of SARS-CoV-2 spike.

Parent scFv Ab-14: VH joined to VL by a (GGGGS)3 linker. Changes lie in the heavy chain CDRs alone.
VH: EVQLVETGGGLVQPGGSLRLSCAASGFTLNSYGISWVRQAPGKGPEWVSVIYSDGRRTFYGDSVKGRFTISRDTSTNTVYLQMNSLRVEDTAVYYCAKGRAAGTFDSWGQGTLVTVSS
VL: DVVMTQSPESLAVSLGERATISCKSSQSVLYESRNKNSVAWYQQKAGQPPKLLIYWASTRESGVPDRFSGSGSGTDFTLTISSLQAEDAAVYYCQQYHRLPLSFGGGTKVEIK

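The variants were designed computationally from a first round of random CDR variants and then made and measured. Their group label is 14H_En_Gibbs (En: ensemble of fine-tuned language models; Gibbs: Gibbs sampling). Affinity was read by AlphaSeq, a pooled yeast mating assay with surface-displayed partners. Mating (16 h, 30 °C) was followed by selection of diploids and sequencing of their barcodes. Scores were corrected for input abundance and mapped to Kd with protein pairs of known affinity run in the same pool. The assay was run in six technical replicates.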

Variants are written as CDR1, CDR2 and CDR3 of the heavy chain (limits as in the source). Parent: GFTLNSYGIS, VIYSDGRRTFYGDSVK, GRAAGTFDS. Numbers give log10(Kd / nM), so 0 is 1 nM and 3 is 1 µM. Smaller is tighter. Where no diploid with the target was found in that replicate, the entry reads "ND": below detection, most likely a poor binder, though not proof of it. Values of this round are not directly comparable with the first-round values of the same sequences.

CDR-H1,CDR-H2,CDR-H3,"log10 Kd, replicates",empty controls
GMDLDEYGIS,VIYADGHRRQYAANVK,GVNIDGFDL,ND / ND / ND / ND / ND / ND,0/18
GFDILEYGIS,VIYADGQRTAYKPTVK,GNHTGLVFI,ND / ND / ND / ND / ND / ND,0/18
GFQLNEYGIS,VIYADGKRSEYQDSVK,GGNNSSFSL,ND / ND / ND / ND / ND / ND,0/18
GFDLEEYGIS,VIYADGMRNAYTANVK,GGKSEDFFM,ND / ND / ND / ND / ND / ND,0/18
GFDIDEYGIS,VIYADGTRTAVDPSFK,GQMAGFFTN,ND / ND / ND / ND / ND / ND,0/18
GKTLDEYGIS,VIYADGMRTFYLNTVK,GEDGGFLNQ,ND / ND / ND / ND / ND / ND,0/18
GFSIDEYGIS,VIYADGLRQHYTNAVK,GEAAGTLDM,0.26 / 0.94 / 1.22 / 2.09 / 1.68 / ND,0/18
GFDLNEYGIS,VIYADGIRTAYSDKVK,GMDGIVILF,ND / ND / ND / ND / ND / ND,0/18
GKHLDEYGIS,VIYADGQRVFYSDTVK,GIQGFTVDV,ND / ND / ND / ND / ND / ND,0/18
FQLLEDYGIS,VIYADGKRQAYVNSVK,GEHAGTFDI,ND / ND / ND / ND / ND / ND,0/18
GNDLEEYGIS,VIYADGIRTNYSQNVK,GTNGDTFTQ,ND / ND / ND / ND / ND / ND,0/18
GFDIQEYGIS,VIYADGHRTSYTNKVK,GGISMISST,ND / ND / ND / ND / ND / ND,0/18
GFEVDEYGIS,VIYADGKRSMYADKVK,GVIAGMMHV,0.57 / 0.77 / 1.11 / 1.03 / 0.87 / 0.61,0/18
GFDINEYGIS,VVYADGMRQAYIENVK,GTLSGTFDA,0.27 / -0.01 / 0.34 / -0.26 / -0.32 / 0.21,0/18
GFDLDEYGIS,VIYADGHRVSYAADVK,GSVEGVDMV,ND / ND / ND / ND / ND / ND,2/18 (1.79)
GSDLNEYGIS,VIYADGRRVSYAENVK,GINMAGIFI,ND / ND / ND / ND / ND / ND,0/18
GFNLDEYGIS,VIYADGMRTFVTEAVK,GSNADFVFA,ND / ND / ND / ND / ND / ND,0/18
GRNLDEYGIS,VIYADGQRTSYIDNVK,GGDSVDFDM,ND / ND / ND / ND / ND / ND,0/18
GNTLDEYGIS,VIYADGMRKAYINKFK,GMVTGTFDQ,ND / ND / ND / ND / ND / ND,0/18
GKDLQEYGIS,VIYADGKREQYAGDVK,GGLTGQFTV,ND / ND / ND / ND / ND / ND,0/18
GQDINEYGIS,VIYADGMRKAYVQQVK,GQNLGDVEV,ND / ND / ND / ND / ND / ND,1/18 (2.84)
GKDLDEYGIS,VIYADGKRTAYVENVK,GQFGGTLLD,ND / ND / 0.37 / ND / 0.41 / ND,0/18
GMDLDEYGIS,VIYADGQRRAYAANFK,GVNIDGFDL,ND / 1.32 / 0.43 / 1.80 / ND / ND,0/18
GFDIDEQGIS,VIYADGLRVAYKNRVK,GMGSGVIDM,ND / ND / ND / ND / ND / ND,0/18
GFNLNEYGIS,VIYADGHRSAYVDNVK,GHLGGTFSM,0.58 / 0.61 / 0.28 / -0.05 / 0.78 / 0.37,0/18
GFSLNEYGIS,VIYADGKSRHYADSVK,GLESGFFDI,ND / ND / ND / ND / ND / ND,0/18
GKNLDEYGIS,VIYADGMRSMYADSVK,GGISGWTFI,ND / ND / ND / ND / ND / ND,1/18 (0.83)
GFSFNEYGIS,VIYADGKRQAYANKVK,GGKDAAFDI,ND / 2.28 / ND / ND / ND / ND,0/18
GFDVDKYGIS,VIYADGRRKAYQNQFK,GGQAGTFVN,ND / 4.96 / ND / ND / ND / ND,2/18 (2.85)
GFGLDEYGIS,VIYADGVRENYTDDVK,GGSWVVSLT,ND / ND / ND / ND / ND / ND,0/18
GFDLDEYGIS,VIYADGKRTSYQADVK,GVQGGNALV,1.96 / ND / ND / ND / ND / ND,0/18
GFNLEEYGIS,VIYADGFRASYQQKVK,GQDGLVGMD,ND / ND / ND / ND / ND / ND,0/18
GDSLEEYGIS,VIYADGRRTAYQESVK,GLYAGMLDV,ND / ND / ND / ND / ND / 3.18,2/18 (2.23)
GKSIEEYGIS,VIYADGQRNAYAETVK,GTNGGVFSY,ND / ND / ND / ND / ND / ND,0/18
GFYLNEYGIS,VIYADGQRKVYANNVK,GNFGGLQDY,ND / ND / ND / ND / ND / ND,0/18
GFDINEYGIS,VIYADGKRMAYAWKVK,GKEAGTLIL,ND / ND / ND / ND / ND / ND,0/18
GFDLEKYGIS,VIYADGQRVEYDSSVK,GENAGYFMI,ND / ND / ND / ND / ND / ND,0/18
GFDLAEYGIS,VIYADGMRVSYDQNVK,GHGGGSFNF,1.77 / 2.57 / 2.37 / 0.74 / 1.69 / 0.43,0/18
GFNLGEYGIS,VIYADGRRTFYINSVK,GEFIVMNVD,ND / ND / ND / ND / ND / ND,0/18
GFDIQDYGIS,VIYADGLRTAYSDGFK,GIIAGTFNI,-0.32 / -0.28 / -0.56 / -0.55 / -0.64 / -0.30,0/18
GFNLDEYGIS,VIYADGQRVSYDDPVK,GEQAGTVMV,ND / ND / ND / ND / ND / ND,0/18
GFNLESYGIS,VIYADGKRSSVSNSVK,GQLGNAFDM,ND / ND / ND / 2.32 / ND / 3.58,0/18
GFDLDQYGIS,VIYADGRRTAYANDVK,GKYAGSMLD,ND / ND / ND / ND / ND / ND,0/18
GFDLQEYGIS,VIYADGQRQEYSDDVK,GQTAGHFLH,ND / ND / ND / ND / ND / ND,0/18
GFDLKEYGIS,VIYADGMRSVYINSFK,GDSAGIINF,1.47 / 1.24 / ND / 1.35 / 3.04 / 0.85,0/18
GFDLDEYGIS,VIYADGMRSAIRENVK,GEISGTLNA,1.98 / 1.21 / 0.59 / ND / 0.93 / 1.89,0/18
GMNLEEYGIS,VIYADGMRTAAVDSVK,GDQSGTVVY,ND / ND / ND / ND / ND / ND,0/18
GFGLDEFGIS,VIYADGLRSSYVDDVK,GELTGGFKV,ND / ND / ND / ND / ND / ND,0/18
GFDLQEYGIS,VIYADGSRTAYNQNVK,GLTLDSYDV,ND / ND / ND / ND / ND / ND,0/18
GMDLEEYGIS,VIYADGLRSAYVDAVK,GGVGDVDFV,ND / ND / ND / ND / ND / ND,0/18

In the paper, a design with two or fewer of six values counts as a poor binder. As a blank, each scFv also met three strains without target: over all heavy chain designs, 1% of these pairings were detected, typically at 2.08 and seldom below 0.84. The control count says in how many pairings with the empty strains this scFv gave a signal, with their mean in brackets.

Reference: Li et al. 2023, doi:10.1038/s41467-023-39022-2. File: FLAb, binding data.